Patent US20200069583A1, “IN SITU PHASE CHANGE GEL SUSTAINED-RELEASE SYSTEM FOR SMALL MOLECULE DRUG AND PREPARATION METHOD THEREOF” (SICHUAN UNIVERSITY, priority 2017, published 2020)

Experiment: Cmax of other small molecule drugs in plasma, preparation versus original drug solution (Experimental Example 7)
Details: male, Sprague-Dawley (SD), rat, in vivo, sc

Compound `Cc1nc2n(c(=O)c1CCN1CCC(c3noc4cc(F)ccc34)CC1)CCCC2` [Risperidone] has a Cmax of 340 ± 40 ng/mL.
